The data set relates to E. coli. As to conditions: mouse, in vivo.

`OC[C@@H](O)[C@@H](O)[C@H](O)[C@@H]([18F])CO` [[^18F]FDS, 2-[^18F]-fluorodeoxysorbitol]: the “sites of PET signal concentration” value is “infected right thigh, gall bladder, intestine, and bladder”.

These data come from patent publication US11268958B2, “Bacteria-specific labeled substrtates as imaging biomarkers to diagnose, locate, and monitor infections” (THE JOHNS HOPKINS UNIVERSITY, priority 2012, dated 2022).
